This passage reports Rate change and IC50 results from ChEMBL document CHEMBL1124394, “Synthesis and biological evaluation of 14-alkoxymorphinans. 2. (-)-N-(cyclopropylmethyl)-4,14-dimethoxymorphinan-6-one, a selective mu opioid receptor antagonist” (J Med Chem, 1989).

Chains of the proteins cited; added tags and fusions are not shown. Lines headed by an entry give the natural chain unless they say otherwise; changes in a name come on top.
UniProt P33533, whole entry, looked up: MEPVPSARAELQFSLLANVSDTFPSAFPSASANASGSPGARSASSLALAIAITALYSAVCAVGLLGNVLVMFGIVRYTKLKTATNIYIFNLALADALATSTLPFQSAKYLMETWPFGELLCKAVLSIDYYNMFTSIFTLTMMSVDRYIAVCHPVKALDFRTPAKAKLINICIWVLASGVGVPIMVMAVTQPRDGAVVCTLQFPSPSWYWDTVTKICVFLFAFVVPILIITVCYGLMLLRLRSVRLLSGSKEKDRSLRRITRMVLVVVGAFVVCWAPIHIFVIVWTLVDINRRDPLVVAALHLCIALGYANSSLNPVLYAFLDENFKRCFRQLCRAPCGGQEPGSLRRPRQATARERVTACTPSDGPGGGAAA
UniProt P34975: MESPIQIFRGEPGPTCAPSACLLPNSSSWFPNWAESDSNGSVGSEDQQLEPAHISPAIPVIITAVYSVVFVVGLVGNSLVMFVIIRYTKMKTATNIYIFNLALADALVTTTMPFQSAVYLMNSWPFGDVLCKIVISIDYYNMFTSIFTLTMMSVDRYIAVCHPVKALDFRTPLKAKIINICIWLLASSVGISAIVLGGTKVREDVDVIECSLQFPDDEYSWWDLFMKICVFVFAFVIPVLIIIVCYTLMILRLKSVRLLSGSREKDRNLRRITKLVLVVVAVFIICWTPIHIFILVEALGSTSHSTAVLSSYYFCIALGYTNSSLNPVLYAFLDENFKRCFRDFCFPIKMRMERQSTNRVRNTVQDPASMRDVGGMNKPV
UniProt P33535, whole entry, looked up: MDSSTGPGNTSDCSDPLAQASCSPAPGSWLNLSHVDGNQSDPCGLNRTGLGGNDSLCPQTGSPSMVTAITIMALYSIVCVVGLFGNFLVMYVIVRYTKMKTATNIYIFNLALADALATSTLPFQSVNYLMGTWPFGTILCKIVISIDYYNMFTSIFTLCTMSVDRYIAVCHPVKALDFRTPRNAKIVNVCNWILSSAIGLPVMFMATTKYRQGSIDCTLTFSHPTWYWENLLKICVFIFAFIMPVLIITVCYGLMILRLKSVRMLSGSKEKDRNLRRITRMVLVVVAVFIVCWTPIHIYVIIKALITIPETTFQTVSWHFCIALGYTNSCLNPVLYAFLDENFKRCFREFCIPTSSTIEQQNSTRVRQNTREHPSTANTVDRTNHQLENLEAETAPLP

For one assay, the system named is Oryctolagus cuniculus. Briefly: Percent change of rate in the respiratory activity was measured in rabbit at 0.1 mg/kg dose given intravenously. The conditions noted are these: route intravenous.
In a further assay the target is Opioid receptor (Rattus norvegicus, UniProt P33533+P34975+P33535).

SMILES strings stand for the structures.

Take `CN(C(=O)Cc1ccc(Cl)c(Cl)c1)C1CCCCC1N1CCCC1` (configuration not stated): the Rate change in the assay on Oryctolagus cuniculus stood at 29%. The IC50 against Opioid receptor stood at 2150 nM.

What is called IC50 is the concentration at which inhibition is half-maximal. High values mean lower potency, low ones higher potency.
